According to patent publication US8088574B2, “Poly(A) polymerase” (Wisconsin Alumni Research Foundation, priority 2007, dated 2012):

System: HO-1 mRNA
Assay: quantitative real-time PCR of HO-1 mRNA in HEK 293 cells
Settings: HEK 293 cells pretreated with CKI inhibitor (IC261 50 μM, CKI-7 250 μM, 2.5 h); for HO-1 mRNA induction after exposure to 100 μM tBHQ: tBHQ 4 hours

Structure (SMILES)	basal levels of HO-1 mRNA	HO-1 mRNA induction after exposure to 100 μM tBHQ
NCCNS(=O)(=O)c1ccc(Cl)c2ccncc12 [CKI-7]	reduced the basal levels of HO-1 mRNA	blocked HO-1 mRNA induction
COc1cc(OC)c(C=C2C(O)=Nc3ccccc32)c(OC)c1 [IC261]	reduced the basal levels of HO-1 mRNA	blocked HO-1 mRNA induction
